Test results published in ChEMBL document CHEMBL1132147, “2-(2-Phenylcyclopropyl)imidazolines: reversed enantioselective interaction at I(1) and I(2) imidazoline receptors” (J Med Chem, 1999).

Experiments:
[1] = Relative binding to I2 and I1 imidazoline receptors […]
[2] = Relative binding to I2 imidazoline and alpha-2 adrenergic receptors […]

Compound	Ratio [1]	Ratio [2]
c1ccc(C2CC2C2=NCCN2)cc1 (racemic)	0.8	17
c1ccc([C@H]2C[C@@H]2C2=NCCN2)cc1	0.1	2
c1ccc([C@@H]2C[C@H]2C2=NCCN2)cc1	58	20
